According to patent publication US20100150930A1, “MAGE-11 AS A MARKER FOR ENDOMETRIAL RECEPTIVITY TO EMBRYO TRANSPLANTATION AND A MARKER AND THERAPEUTIC TARGET IN CASTRATION-RECURRENT PROSTATE CANCER” (The University of North Carolina at Chapel Hill, priority 2007, published 2010):

What was measured:
MAGE-11 mRNA [1] = test: MAGE-11 mRNA by real-time PCR in ECC-1 cells; assay type: cell-based, human; details: 100 Units/ml hCG, 10 nM progesterone, 10 nM DHT or 10 ng/ml EGF
MAGE-11 mRNA [2] = test: MAGE-11 mRNA by real-time PCR in Ishikawa cells; assay type: cell-based, human; details: 100 Units/ml hCG, 10 nM progesterone, 10 nM DHT or 10 ng/ml EGF

Substance: hCG: human chorionic gonadotropin (Sigma)
- change in MAGE-11 mRNA levels (MAGE-11 mRNA [1]): unchanged
- change in MAGE-11 mRNA levels (MAGE-11 mRNA [2]): unchanged
